From US8709738B2, “Methods for predicting cardiac toxicity” (Quintiles Transnational Corporation, priority 2006, dated 2014)

What was measured:
Type in all cases: cell-based
[1] = tested on: normal fat cells grown in culture; test: Lipid stored in cultured fat cells (Oil red O staining); conditions: cell type not given
Text: Treatment of otherwise normal cells or cells having normal protein tyrosine kinase regulation with the kinase inhibitors of the invention affects fatty acid metabolism by increasing or decreasing the capacity of such cells to oxidize fatty acids. […] This observation has also been made in cardiac cells. Such studies can be conducted using Oil red 0 staining for lipids. Thus, treatment with lapatinib (TYKERB®) and other Her1/Her2 tyrosine kinase inhibitors cause a loss of fat from such cells that is consistent with reduced lipid synthetic rates and/or increased lipid oxidation rates.
In addition, tyrosine kinase inhibitors can be used to reduce fat in cells, particularly cells that are otherwise normal or that lack protein tyrosine kinase activity mediated disease. To this end at least a portion of a mammal or tissue can be treated with a kinase inhibitor such that the amount of lipid in the cells is reduced. Any suitable kinase inhibitor can be used. Methods for determining suitable inhibitors are well known. For example, samples of adipocytes can be grown in the presence and absence of a kinase inhibitor and stained with Oil red 0 by known methods to determine whether the kinase inhibitor causes a reduction in stored fat. Those kinase inhibitors that cause an observable reduction in fat storage are suitable for the present invention. […]

[2] = tested on: HER2-expressing human cardiomyocytes; test: AMPK activation, ATP production and TNFα-induced apoptosis in cardiomyocytes
Text: The effects of specific HER2-targeted therapies on AMPK and consequently energy production may predict for the risk associated cardiomyopathy and provide a novel HER2-directed therapeutic strategy to protect myocardium from the killing effects of TNFα or other pro-apoptotic stimuli, following acute ischemic injury.

[3] = tested on: Au565 cells; test: Oil red lipid staining of Au565 cells; conditions: FIG. 2 and FIG. 3
Text: FIG. 3 are photographs of Au-565 cells treated by GW-2974 and stained for lipids.
(§1) This is shown by the staining of lipids with oil red (lipids are represented by red dots) against the background counterstaining of the cells (hematoxylin). […] Lipids increase in cells treated with Herceptin and NDF (compared with untreated cells) but not decrease in cells treated with GW2974.

[4] = tested on: primary human cardiac myocytes; test: Lipid staining of cardiomyocytes; conditions: FIG. 4
Text: FIG. 4 are photographs of primary human cardiac myocytes grown under various conditions and stained for lipids.
FIG. 5 is a bar graph illustrating the percentage of human cardiomyocytes testing positive for lipids under various conditions.
as §1

[5] = tested on: cardiomyocytes cells; test: ERRα and MCAD in cardiomyocytes treated with kinase inhibitors; conditions: FIG. 8
Text: FIG. 8 is a photograph of ERRα and MCAD in cardiomyocytes cells with and without treatment by various kinase inhibitors.
ERRα plays a role in lipid metabolism in cardiac cells, and MCAD is an enzyme that breaks down lipids and fatty acids. Mutations in MCAD is a common genetic disorder, especially in those of northern European descent.

In the case of “HERCEPTIN®: the monoclonal antibody HERCEPTIN®; HER2-targeted therapy”, the “lipid content of cells” value [1] is reported as “appears to increase”, the AMPK activation [2] is reported as “do not activate AMPK” and the “cardiomyocyte apoptosis / cell death induced by TNFα” value ([2]; TNFα) is reported as “enhanced cardiomyocyte cell death”. The “lipids in Au565 cells (oil red staining)” value [3] was “result in the production of lipids”, the “lipids in cardiomyocyte cells compared with untreated cells” value [4] was “increase” and the MCAD expression [5] was “expressed”. For the same substance, the “level of ERRα” value [5] was “diminished slightly”.
